Measured affinities in a library of Ab-14 heavy chain variants

Data: MIT Lincoln Laboratory AlphaSeq set, Li et al. 2023, doi:10.1038/s41467-023-39022-2, as distributed in FLAb.

Binding partner: SARS-CoV-2 spike HR2 peptide, sequence PDVDLGDISGINAS.

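The starting antibody came from a phage panning campaign against this peptide. Designed CDR sequences, proposed from the first random library and measured here. Several design methods are mixed in this list. Affinity was read by AlphaSeq, a pooled yeast mating assay with surface-displayed partners. The frequency of each diploid, read from paired DNA barcodes, reflects how well the two displayed proteins bind. Read counts were normalised to the haploid input and turned into Kd by a linear fit to BCL2-family pairs of known affinity, for each replicate. The assay was run in six technical replicates.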

Each scFv is VH, the linker GGGGSGGGGSGGGGS, VL, as in the parent Ab-14, and differs from it in the CDRs of the heavy chain only.
VH: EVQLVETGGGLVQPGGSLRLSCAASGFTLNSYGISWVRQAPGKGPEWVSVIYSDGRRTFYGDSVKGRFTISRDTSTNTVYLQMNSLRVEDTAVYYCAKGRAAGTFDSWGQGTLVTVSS
VL: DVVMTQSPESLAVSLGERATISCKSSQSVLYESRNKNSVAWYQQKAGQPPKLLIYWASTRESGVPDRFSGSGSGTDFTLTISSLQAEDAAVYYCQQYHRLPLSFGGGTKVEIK

The parent's heavy chain CDRs are GFTLNSYGIS, VIYSDGRRTFYGDSVK, GRAAGTFDS; each variant's own CDRs replace them letter for letter. This list holds designs with more than six substitutions. Values are apparent Kd, the geometric mean of the replicates that gave a signal; lower means stronger binding. "nd" means that the variant was in the library but no mating with the target was seen in any replicate; the authors take this as a sign of poor binding, and no number exists. Order: sorted from the lowest average up, undetected variants last. Three control strains display no target. For all heavy chain designs, 1% of the pairings with them gave a signal, with a median of 120 nM and one signal in twenty below 7.0 nM, so weak values seen in few replicates may be background.

The variant GFDLNEYGIS / VIYADGKRTAYSDSVK / GTVAGTFDV gave 74 pM (6 of 6 replicates). The variant GFDLNEYGIS / VIYADGQRTAYADSVK / GKVAGTFDN showed 100 pM (6 of 6 replicates). The variant GFDLNEYGIS / VIYADGMRKAYADDVK / GQNAGTFDV gave 150 pM (6 of 6 replicates). The variant GFDLNEYGIS / VIYADGMRTAYSDSVK / GEVAGTFDQ gave 160 pM (6 of 6 replicates). With GFDLDEYGIS / VIYADGMRTFYADSVK / GENAGTFDL the result was 190 pM (6 of 6 replicates).

For GFDLNEYGIS / VIYADGMRTFYVDSVK / GQVAGTFDV, the assay gave 230 pM (6 of 6 replicates). The variant GFDLNEYGIS / VIYADGRRTAYDDSVK / GEVAGTFDS showed 290 pM (6 of 6 replicates). For GFDLNEYGIS / VIYADGLRTAYADNVK / GEVAGTFDV, the assay gave 300 pM (6 of 6 replicates). With GFDLNEYGIS / VIYADGMRTAYADSVK / GNTAGTFDL the result was 320 pM (6 of 6 replicates). The variant GFDLNEYGIS / VIYADGMRTVYADDVK / GNNAGTFDV showed 350 pM (6 of 6 replicates).

With GFDLNEYGIS / VIYADGMRTFYDDSVK / GQLAGTFDL the result was 380 pM (6 of 6 replicates). The variant GFDLNEYGIS / VIYADGMRTAYSDDVK / GNVAGTFDT gave 400 pM (6 of 6 replicates). The variant GFNLNEYGIS / VIYADGRRTFYADSVK / GNVAGTFDM showed 470 pM (6 of 6 replicates). The variant GFDLNEYGIS / VIYADGRRTFYADSVK / GQVAGTFVS gave 480 pM (6 of 6 replicates). The variant GFDLNEYGIS / VIYADGVRTAYADSVK / GEVAGTFDV showed 480 pM (6 of 6 replicates).

With GFDLNEYGIS / VIYADGMRTAYSDSVK / GNQAGTFDT the result was 600 pM (6 of 6 replicates). With GFDLDEYGIS / VIYADGKRTAYSDSVK / GETAGTFDV the result was 620 pM (6 of 6 replicates). The variant GFDLNEYGIS / VIYADGQRTVYADSVK / GENAGTFDV gave 670 pM (6 of 6 replicates). For GFDLDEYGIS / VIYADGMRTFYADSVK / GENAGTFDA, the assay gave 720 pM (6 of 6 replicates). The variant GFDLDEYGIS / VIYADGVRTAYADSVK / GNNAGTFDI showed 810 pM (6 of 6 replicates).

For GFDLNEYGIS / VIYADGRRTFYSDSVK / GENAGSFDV, the assay gave 1.0 nM (6 of 6 replicates). For GFDLNEYGIS / VIYADGVRTAYTDSVK / GENAGTFDV, the assay gave 1.1 nM (6 of 6 replicates). The variant GFDLNEYGIS / VIYADGRRTFYTDSVK / GNHAGTFDV gave 1.2 nM (6 of 6 replicates). The variant GFDLNEYGIS / VIYADGVRTAYSDSVK / GETGGTFDS showed 1.2 nM (6 of 6 replicates). The variant GFDLNEYGIS / VIYADGVRTAYADDVK / GNVAGTFDA showed 1.2 nM (6 of 6 replicates).

The variant GFDLNEYGIS / VIYADGRRTFYADSVK / GEFAGTFDE gave 1.8 nM (6 of 6 replicates). With GFDLNEYGIS / VIYADGTRTAYADSVK / GNVAGTFDL the result was 2.5 nM (5 of 6 replicates). With GFDLNEYGIS / VIYADGKRTFYTDNVK / GQNAGTFDS the result was 9.4 nM (4 of 6 replicates). With GFELDEYGIS / VIYADGHRRAYADKVK / GMHMGSVQH the result was 11 nM (1 of 6 replicates). The variant GFDLNEYGIS / VIYADGRRTQYIDSVK / GEIAGTFDE showed 18 nM (4 of 6 replicates).

The variant GFDLNEYGIS / VIYADGRRTFYADSVK / GKNAGTFLV showed 38 nM (5 of 6 replicates). With GQDINEYGIS / VIYADGLRQAYSENVK / GNINQFDAV the result was 6.4 µM (2 of 6 replicates). For GFDLGEYGIS / VIYADGRRTAYQDSVK / GLNEGMLVV, the assay gave nd (0 of 6 replicates). For GDGLQEYGIS / VIYADGFRSSYANSVK / GTGTGIFMV, the assay gave nd (0 of 6 replicates). The variant GFSLEEFGIS / VIYADGFRAAYAQDVK / GGHAGHFVV showed nd (0 of 6 replicates).

The variant GENLEEYGIS / VIYADGTRTQYAEKVK / GQQGGFFIK showed nd (0 of 6 replicates). The variant GEDLDEYGIS / VIYADGRRVVYQDQVK / GELSGSFAQ showed nd (0 of 6 replicates). With GFDLNEFGIS / VIYADGVRTFYTDNVK / GINVVAEVI the result was nd (0 of 6 replicates). The variant GFDLNEYGIS / VIYADGRRQAVVENVK / GKINVVDSV showed nd (0 of 6 replicates). The variant GEDLQEYGIS / VIYADGQRQEYSDDVK / GQTAGHFLH showed nd (0 of 6 replicates).

With GFTNFDYGIS / VYYSDGRRTQYIDSVK / GNAAGTFDS the result was nd (0 of 6 replicates). For GGDLEKYGIS / VIYADGKRSEYSDAVK / GQQAGTLNT, the assay gave nd (0 of 6 replicates). With GKSLDEYGIS / VIYADGKRTMYANDVK / GHVGAIFMM the result was nd (0 of 6 replicates). The variant GFDLDEYGIS / VIYADGMRTAYSDDVK / GENAGTFDV showed nd (0 of 6 replicates). The variant GFNLNEYGIS / VIYADGIRSNYADSFK / GKSNNFFID gave nd (0 of 6 replicates).

The variant GMNLDEYGIS / VIYADGLRTEYANTVK / GEMAGFFML showed nd (0 of 6 replicates).

Excerpt, the final 5 entries:

CDR-H1,CDR-H2,CDR-H3,apparent Kd,replicates with signal
GGDLEKYGIS,VIYADGKRSEYSDAVK,GQQAGTLNT,nd,0/6
GKSLDEYGIS,VIYADGKRTMYANDVK,GHVGAIFMM,nd,0/6
GFDLDEYGIS,VIYADGMRTAYSDDVK,GENAGTFDV,nd,0/6
GFNLNEYGIS,VIYADGIRSNYADSFK,GKSNNFFID,nd,0/6
GMNLDEYGIS,VIYADGLRTEYANTVK,GEMAGFFML,nd,0/6

Values of this round are not directly comparable with the first-round values of the same sequences. The authors averaged sequences with at least three values out of six and counted those with two or fewer as poor binders. Of ten entries with the parent sequence, four were seen in most replicates (averages 2.2 nM to 240 nM), three in one and three in none, so single entries are noisy.